The test has as its system Prostaglandin D2 receptor 2, CRTh2 (Homo sapiens). In words: Antagonist activity at CRTH2 receptor (unknown origin) expressed in CHOK1 cells assessed as dissociation half life measured up to 25 hrs by GTPgammaS assay. As to conditions: CHO-K1.
For `Cc1c(CC(=O)O)c2ccncn2c1Cc1ccccc1S(=O)(=O)c1ccccc1`, the T1/2 is 12 min.

In the case of `Cc1c(Cc2ccccc2S(=O)(=O)c2ccccc2)c2c(n1CC(=O)O)CCNC2=O`, the T1/2 was found to be 138 min.

For the molecule `Cc1c(Cc2ccccc2S(=O)(=O)c2ccccc2)c(-c2ccccc2)nn1CC(=O)O`, the T1/2 turned out to be 1.2 min.

As for `COc1ccc(S(=O)(=O)c2ccc(F)cc2)c(Cc2c(C)c(CC(=O)O)c3ccncn23)c1`, the T1/2 was found to be 90 min.

On to `COc1ccc(S(=O)(=O)c2ccc(F)cc2)c(Cn2cc(CC(=O)O)c3ccc(C)nc32)c1`, for which the T1/2 is 30 min.

Source of the values: ChEMBL document CHEMBL3774370, “Structure-activity relationships (SAR) and structure-kinetic relationships (SKR) of sulphone-based CRTh2 antagonists” (Eur J Med Chem, 2016).
